Literature values in US7432414B2, “Transgenic mouse having an amyloid precursor protein with a modified beta secretase cleavage site” (Merck & Co., Inc., priority 2004, dated 2008).

The chains behind the UniProt entries cited, without tags or fusion partners. Residues count along the entry.
UniProt P56817, 46-501: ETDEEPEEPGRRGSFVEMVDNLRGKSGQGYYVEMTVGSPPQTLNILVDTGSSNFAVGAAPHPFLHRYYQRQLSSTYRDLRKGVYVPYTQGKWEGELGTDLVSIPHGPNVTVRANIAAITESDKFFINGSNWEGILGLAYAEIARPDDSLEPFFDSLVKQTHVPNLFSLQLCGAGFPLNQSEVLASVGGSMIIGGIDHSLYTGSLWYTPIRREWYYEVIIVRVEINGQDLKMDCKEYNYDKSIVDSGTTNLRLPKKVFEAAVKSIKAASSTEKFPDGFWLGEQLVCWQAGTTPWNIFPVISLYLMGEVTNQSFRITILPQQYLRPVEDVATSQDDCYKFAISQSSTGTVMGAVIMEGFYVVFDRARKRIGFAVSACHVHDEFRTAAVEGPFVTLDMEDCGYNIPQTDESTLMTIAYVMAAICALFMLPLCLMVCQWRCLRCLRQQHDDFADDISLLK

Target: T1, recombinant β secretase produced in E. coli (Homo sapiens, UniProt P56817)
T1 construct: host or cells: E. coli
Conditions: Ghosh et al., 2000, J. Am. Chem. Soc. 122:3522-3523, read-out: Ki towards recombinant β secretase

For “modified peptide β secretase inhibitor, structure EVNL*AAEF (SEQ ID NO: 3), L*A = uncleavable hydroxyethylene transition-state isostere of the LA peptide bond [OM99-2]”, the Ki is given as 96 ± 3 nM.
